Results published in ChEMBL document CHEMBL1136129, “Design and synthesis of poly(ADP-ribose)polymerase-1 (PARP-1) inhibitors. Part 3: In vitro evaluation of 1,3,4,5-tetrahydro-benzo[c][1,6]- and [c][1,7]-naphthyridin-6-ones” (Bioorg Med Chem Lett, 2003).

Sequences of proteins named here, by UniProt entry; tags and fusion partners are left off.
UniProt P09874, whole entry: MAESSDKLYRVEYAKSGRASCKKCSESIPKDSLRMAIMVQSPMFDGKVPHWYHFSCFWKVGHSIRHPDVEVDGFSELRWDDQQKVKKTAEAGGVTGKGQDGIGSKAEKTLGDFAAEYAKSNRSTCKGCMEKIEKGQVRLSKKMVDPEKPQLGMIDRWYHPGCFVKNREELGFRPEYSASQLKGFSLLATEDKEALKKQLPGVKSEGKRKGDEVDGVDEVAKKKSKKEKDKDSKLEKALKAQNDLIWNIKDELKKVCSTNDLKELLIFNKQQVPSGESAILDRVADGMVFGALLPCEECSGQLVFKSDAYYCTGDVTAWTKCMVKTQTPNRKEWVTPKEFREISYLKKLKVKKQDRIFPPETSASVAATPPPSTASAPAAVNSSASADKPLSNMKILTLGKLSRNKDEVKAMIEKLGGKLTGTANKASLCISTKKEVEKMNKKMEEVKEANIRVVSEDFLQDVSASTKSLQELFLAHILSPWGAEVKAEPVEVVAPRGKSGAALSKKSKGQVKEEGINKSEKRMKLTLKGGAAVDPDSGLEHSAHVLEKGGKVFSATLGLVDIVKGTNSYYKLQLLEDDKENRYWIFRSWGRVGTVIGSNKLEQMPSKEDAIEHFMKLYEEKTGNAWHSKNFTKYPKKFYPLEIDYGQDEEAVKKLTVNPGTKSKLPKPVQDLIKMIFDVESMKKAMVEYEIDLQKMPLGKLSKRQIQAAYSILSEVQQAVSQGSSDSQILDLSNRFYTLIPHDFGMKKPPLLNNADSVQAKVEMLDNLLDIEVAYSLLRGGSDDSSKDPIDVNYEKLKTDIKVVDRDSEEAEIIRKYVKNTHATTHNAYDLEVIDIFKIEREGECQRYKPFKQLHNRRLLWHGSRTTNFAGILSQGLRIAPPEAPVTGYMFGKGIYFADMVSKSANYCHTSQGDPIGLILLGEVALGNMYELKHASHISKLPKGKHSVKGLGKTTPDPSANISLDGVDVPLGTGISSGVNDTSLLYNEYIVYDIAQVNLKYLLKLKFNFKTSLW

Molecular target: Poly [ADP-ribose] polymerase 1 (Homo sapiens, UniProt P09874)
Experiment: Inhibition of human recombinant Poly (ADP-ribose) polymerase 1

First: O=C(CN1CCCCC1)N1CCc2c(nc(O)c3ccccc23)C1
Second: O=C(CCN1CCCCC1)N1CCc2nc(O)c3ccccc3c2C1
The IC50 of the first is 3.9-fold higher: 162 nM for the first, 42 nM for the second. The second is the more potent here.

In the case of `O=S(=O)(CCN1CCCCC1)N1CCc2nc(O)c3ccccc3c2C1`, the IC50 is reported as 210 nM.
